# Data: patent US20040138119A1
# Target: purified recombinant Survivin (untagged) (human) (UniProt O15392)
# Assay: Scatchard analysis of His6-HBXIP binding to purified untagged Survivin
substance,measurement,value
His6-HBXIP (from UniProt O43504 1-91) (other; other documents disagree on this pair),Kd,460 nM
